Inhibition data for 101 compounds are collected here from PubChem BioAssay AID651572 (The Scripps Research Institute Molecular Screening Center, 2012).

By UniProt entry, the sequences of proteins in these tests, tags left out.
UniProt Q62848, whole entry, looked up: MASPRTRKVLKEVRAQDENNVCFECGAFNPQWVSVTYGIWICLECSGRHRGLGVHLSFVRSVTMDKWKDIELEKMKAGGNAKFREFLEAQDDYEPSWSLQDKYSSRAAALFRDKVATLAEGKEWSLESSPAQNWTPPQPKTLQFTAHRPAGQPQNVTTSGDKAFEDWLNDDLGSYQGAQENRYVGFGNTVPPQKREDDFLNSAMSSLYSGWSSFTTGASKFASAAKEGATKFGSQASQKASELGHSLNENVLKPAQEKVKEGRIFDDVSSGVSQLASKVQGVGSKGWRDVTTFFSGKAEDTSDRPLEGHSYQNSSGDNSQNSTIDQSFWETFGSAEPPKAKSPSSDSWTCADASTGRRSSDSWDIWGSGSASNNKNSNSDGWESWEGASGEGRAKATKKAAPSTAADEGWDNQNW

Only a part is listed here, and it is no random draw. Calls of active or inactive are those of the source.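 The calls were made as follows: active = inhibition above a per-plate limit, mean inhibition of low control wells plus 3 SD (cut at about 25% in these data); inactive = the rest.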

The assay addresses ADP-ribosylation factor GTPase-activating protein 1 (Rattus norvegicus) (UniProt Q62848). Briefly: blockers of ARFGAP1-stimulated ARF1 GTP hydrolysis – biochemical, fluorescence polarization, GDP tracer, primary screen (AID 651572). Conditions: GDP FP detection, at 16.5 µM, stronger effect = higher value. A digest of the protocol:
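Material: truncated rat Arfgap1 GAP domain; Incubation: compound-enzyme preincubation 20 min, reaction 120 min, detection 60 min, 25 °C; Read-out: percent inhibition of Arfgap1-stimulated GTP hydrolysis; Technique: FP, GDP Alexa 633 tracer displaced from anti-GDP antibody, 620/688 nm; Controls: No-Arfgap1 wells (100%) versus DMSO full-reaction wells (0%); Replication: single well per compound.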
Regarding `COc1ccc(N)c([N+](=O)[O-])c1[N+](=O)[O-]`, the inhibition is inactive: 4.99%.

On to `Nc1ccc(CCCCOc2ccccc2)cc1`, for which the inhibition was inactive: 9.38%.

On to `CN(C)C1(CNC(=O)c2ccc(Cl)c(S(N)(=O)=O)c2)CCCCC1`, for which the inhibition was inactive: 1.8%.

For the compound `O=P(Nc1ccccn1)(c1ccc(Br)cc1)c1ccc(Br)cc1`, the inhibition is inactive: 5.12%.

Regarding `O=P(Nc1nc2ccccc2s1)(c1ccccc1)c1ccccc1`, the inhibition is inactive: 4.09%.

As to `C[C@H]1OP(=O)(Oc2ccccc2)[C@H](O)[C@H](O)[C@H]1N=[N+]=[N-]` (stereo partly specified), the inhibition was inactive: 6.38%.

Consider `CC(=O)NC(SC(=S)N(C)C)C(Cl)(Cl)Cl` (stereo unspecified), for which the inhibition was inactive: -2.78%.

Regarding `O=[N+]([O-])c1ncn(CCn2cnc([N+](=O)[O-])n2)n1`, the inhibition was inactive: -0.31%.

Regarding `O=[As](O)(c1ccccc1)c1ccc(O)cc1`, the inhibition is inactive: -2.95%.

Regarding `C/C(N)=N\P(=O)(OCc1ccccc1)OCc1ccccc1`, the inhibition was inactive: -4.91%.

With `C(Cc1nn[nH]n1)Cc1nn[nH]n1`, the inhibition is inactive: 3.05%.

In the case of `Nc1ccc([As](=O)(O)c2ccc([N+](=O)[O-])cc2)cc1`, the inhibition was inactive: -4.81%.

Take `O=C(OC1CN2CCC1CC2)c1cccc(Cl)c1` (stereo unspecified): the inhibition is inactive: 1.2%.

`O=P(Nc1nccs1)(c1ccccc1)c1ccccc1`: the inhibition is inactive: -0.37%.

Turning to `CC(C)C(=O)NC(Sc1ccccc1)C(Cl)(Cl)Cl` (stereo unspecified), the inhibition is inactive: -5.03%.

Regarding `c1nnnn1CCn1cnnn1`, the inhibition is inactive: 1.52%.

On to `O=P1(Nc2nc3ccc(Cl)cc3s2)COc2ccccc2O1` (stereo unspecified), for which the inhibition is inactive: -17.4%.

On to `CCOc1ccc(C2=NCC(CBr)S2)cc1` (stereo unspecified), for which the inhibition was inactive: 13.2%.

For `CCc1cc(O)c([N+](=O)[O-])c(C)c1[N+](=O)[O-]`, the inhibition is inactive: -8.94%.

Turning to `CC(C)(C)C(=O)NC(Sc1ccccc1)C(Cl)(Cl)Cl` (stereo unspecified), the inhibition is inactive: 2.92%.

As to `CC(=O)c1ccc(N2CC2c2ccncc2)cc1` (stereo unspecified), the inhibition was inactive: -1.07%.

Regarding `N#C/C(=C\c1ccc(N(CCBr)CCBr)cc1)C(N)=O`, the inhibition is inactive: -6.53%.

With `COC(=O)C1(C)COP(=O)(NCc2ccccc2)OC1` (stereo unspecified), the inhibition was inactive: -7.61%.

Regarding `Cc1ccccc1CN(C)C(=O)COC(=O)C(O)(c1ccccc1)c1ccccc1`, the inhibition was inactive: -5.98%.

Turning to `C[C@H]1OP(=O)(Oc2ccccc2)C[C@@H]2O[C@@H]21` (stereo partly specified), the inhibition is inactive: -7.25%.

As for `C[C@@H]1C=CCP(=O)(Oc2ccccc2)O1` (stereo partly specified), the inhibition was inactive: 2.41%.

As to `CC(=O)Nc1ccc([As](=O)(O)O)c(O)c1`, the inhibition is inactive: -10.6%.

Turning to `CC(=O)Nc1ccc(Oc2c([N+](=O)[O-])cc([N+](=O)[O-])cc2[N+](=O)[O-])cc1`, the inhibition is inactive: -5.43%.

With `O=C(NC1CCS(=O)(=O)C1)NP(=S)(Oc1ccccc1)Oc1ccccc1` (stereo unspecified), the inhibition was inactive: -1.94%.

As for `CCNC(=S)/N=C(\N)N[N+](=O)[O-]`, the inhibition is inactive: 4.85%.

Take `c1ccc(-c2nn[nH]n2)c(-c2nn[nH]n2)c1`: the inhibition is inactive: -2.29%.

For the compound `Cc1ccc(NP(=O)(Oc2cccc(C)c2)Oc2cccc(C)c2)nc1`, the inhibition is inactive: 0.4%.

For the compound `O=P1(N(CCCl)CCCl)OCCC2CCCCN21` (stereo unspecified), the inhibition is inactive: 4.17%.

For `COC(=O)c1cc2c(s1)N=C(c1ccccc1)N(C)P2(=O)N1CCOCC1` (stereo unspecified), the inhibition was inactive: -0.47%.

For `CC(=O)NC(SC(=S)N(CC(C)C)CC(C)C)C(Cl)(Cl)Cl` (stereo unspecified), the inhibition was inactive: 1.63%.

For the compound `Cc1ccc(OP(=O)(Nc2ccccn2)Oc2ccc(C)cc2)cc1`, the inhibition is inactive: -4.24%.

For `O=C(OC1CN2CCC1CC2)c1ccccc1` (stereo unspecified), the inhibition is inactive: -6.06%.

On to `CCC(=O)N1C2C3N(C(=O)CC)C1C1N(C(=O)CC)C(C(N1C(=O)CC)N3C(=O)CC)N2C(=O)CC`, for which the inhibition is inactive: 0.2%.

Take `CC(NC(=O)COC(=O)C(O)(c1ccccc1)c1ccccc1)c1ccccc1` (stereo unspecified): the inhibition was inactive: 11.1%.

`Cc1ccccc1OP(=O)(Nc1ccccn1)Oc1ccccc1C`: the inhibition was inactive: 1.91%.

As to `O=c1c2cc([N+](=O)[O-])ccc2[nH]c2c([N+](=O)[O-])cc([N+](=O)[O-])cc12`, the inhibition is inactive: 3.04%.

Regarding `CN(C)C(=O)Oc1noc2ccccc12`, the inhibition was inactive: -8.08%.

As to `CC(=O)Nc1ccc([As](=O)(O)O)cc1`, the inhibition is inactive: -0.16%.

As to `O=C(O)c1ccccc1[As](=O)(O)O`, the inhibition is inactive: -5.88%.

Regarding `CCCC1OP(N)(=O)OCC1CC` (stereo unspecified), the inhibition was inactive: 2.55%.

In the case of `O=P(Nc1nc2ccc(Cl)cc2s1)(c1ccccc1)c1ccccc1`, the inhibition is inactive: -4.22%.

For `CN(C)P(=O)(N(C)C)n1c(Nc2ccccc2)nnc1-c1ccccc1`, the inhibition is inactive: 2.32%.

With `Cc1cc(SC(NC(=O)c2ccc(F)cc2)C(Cl)(Cl)Cl)ncn1` (stereo unspecified), the inhibition was inactive: 7.32%.

Take `CCOP(=O)(Nc1ccccc1)OCC`: the inhibition was inactive: 3.7%.

On to `CN(C(=O)Cc1ccc(Cl)c(Cl)c1)[C@H]1CCCC[C@@H]1N1CCCC1`, for which the inhibition is inactive: 7.08%.

`Cc1ccc(NP(=O)(Oc2ccccc2F)Oc2ccccc2F)nc1`: the inhibition is inactive: 8.29%.

For the compound `CCn1c(=O)n(C2CCN(CC3CCCCCCC3)C[C@H]2CO)c2ccccc21` (stereo partly specified), the inhibition was inactive: -0.31%.

Turning to `CN(C(=O)Cc1ccccc1)C1CC[C@@]2(CCCO2)C[C@@H]1N1CCCC1` (stereo partly specified), the inhibition was inactive: 5.62%.

As to `CCN(N=Nc1nonc1N)c1nonc1N`, the inhibition is inactive: 5.14%.

Consider `Nc1cccc2ccc([As](=O)(O)O)cc12`, for which the inhibition is inactive: -3.19%.

Turning to `NC(=O)c1cc([N+](=O)[O-])cc([N+](=O)[O-])c1N`, the inhibition is inactive: -2.84%.

`CN(C(=O)Cc1ccc(Cl)c(Cl)c1)[C@H]1CCCC[C@H]1N1CCCC1`: the inhibition is inactive: 5.33%.

`Cc1ccc(N/C(=N/P(=O)(N2CCOCC2)N2CCOCC2)N2CCOCC2)cc1`: the inhibition was inactive: -4.94%.

As to `COc1ccccc1OP(=O)(Nc1ccc(C)cn1)Oc1ccccc1OC`, the inhibition was inactive: 1.04%.

As for `Cc1ccc(OP(=O)(Nc2nccs2)Oc2ccc(C)cc2)cc1`, the inhibition was inactive: 4.6%.

For `CN1CCCC(OC(=O)C(c2ccccc2)c2ccccc2)C1` (stereo unspecified), the inhibition was inactive: -2.21%.

In the case of `Clc1ccc(Cl)c(NC2=NCC(CBr)S2)c1` (stereo unspecified), the inhibition is inactive: 2.72%.

Turning to `Nc1cc(N)c2nonc2c1[N+](=O)[O-]`, the inhibition was inactive: -1.11%.

Regarding `CC(C)CC(=O)NC(Sc1ccc(Cl)cc1)C(Cl)(Cl)Cl` (stereo unspecified), the inhibition is inactive: 2.58%.

Turning to `Oc1ccccc1CNc1ccccn1`, the inhibition is inactive: 8.1%.

Regarding `O=C(NC(Sc1ccncn1)C(Cl)(Cl)Cl)c1ccccc1` (stereo unspecified), the inhibition is inactive: 2.31%.

In the case of `COc1ccc(C2=NCC(CBr)S2)cc1` (stereo unspecified), the inhibition was inactive: -2.27%.

For the compound `CC(=O)N1C2C3N(C(C)=O)C1C1N(C(C)=O)C(C(N1C(C)=O)N3C(C)=O)N2C(C)=O`, the inhibition is inactive: 0.48%.

As for `O=[N+]([O-])c1cccc2n[nH]nc12`, the inhibition was inactive: 9.75%.

Regarding `Cc1ccc(NP(=O)(Oc2ccccc2)Oc2ccccc2)nc1`, the inhibition was inactive: -7.38%.

As for `O=[N+]([O-])c1cc([N+](=O)[O-])c(CCNc2ccccc2)c([N+](=O)[O-])c1`, the inhibition was inactive: 2.41%.

For the compound `CCc1nc2c(n1)c1c(non1O)c1c2no[n+]1[O-]`, the inhibition is inactive: -4.98%.

As to `Nc1ccc([As](=O)(O)c2ccc(N)cc2)cc1`, the inhibition is inactive: -5.99%.

As to `C[N+]1=C2C=CC=CC=C2SC12C([N+](=O)[O-])=CC([N+](=O)[O-])=C[C-]2[N+](=O)[O-]` (stereo unspecified), the inhibition was inactive: 6.99%.

For `CCN(/C(=N/P(=O)(N1CCOCC1)N1CCOCC1)N1CCOCC1)c1ccc(OC)cc1`, the inhibition was inactive: 7.11%.

Regarding `CC(C)c1nc(Nc2ccccc2)n(P(=O)(N(C)C)N(C)C)n1`, the inhibition was inactive: 3.15%.

Turning to `CC(C)=N/N=C(\N)N[N+](=O)[O-]`, the inhibition was inactive: 3.67%.

`CN(C)C(=O)OCCc1n(C)cc[n+]1C`: the inhibition was inactive: -9.85%.

`CC1CCN(C(=O)Oc2c(Cl)cc(Cl)c3cccnc23)CC1`: the inhibition was inactive: -0.91%.

Regarding `c1cc(-c2nn[nH]n2)ccc1-c1nn[nH]n1`, the inhibition is inactive: 3.38%.

As to `O=P1(N(CCCl)CCCl)OCCCS1` (stereo unspecified), the inhibition is inactive: 11.3%.

As to `O=C(Nc1cc([As](=O)(O)O)ccc1O)c1ccccc1`, the inhibition is inactive: -9.03%.

As for `CC(C)(C)C(=O)NC(Sc1ccncn1)C(Cl)(Cl)Cl` (stereo unspecified), the inhibition was inactive: 3.5%.

As to `O=[N+]([O-])c1ncn(CCn2ncnc2[N+](=O)[O-])n1`, the inhibition was inactive: -5.81%.

With `COC(=O)C1(C)COP(=O)(Nc2ccccc2)OC1` (stereo unspecified), the inhibition is inactive: -5.32%.

With `O=[N+]([O-])c1cccc(NC2=NCC(CBr)S2)c1` (stereo unspecified), the inhibition was inactive: -4.49%.

As for `O=C(O)CNc1ccc([As](=O)(O)O)cc1`, the inhibition is inactive: 11%.

With `CC1CCNP(=O)(N(CCCl)CCCl)O1` (stereo unspecified), the inhibition was inactive: -6.13%.

For the compound `O=C(O)C(O)c1ccc(N(CCCl)CCCl)cc1` (stereo unspecified), the inhibition was inactive: -5%.

Regarding `CCOC(=O)Nc1ccc([As](=O)(O)O)c(O)c1`, the inhibition is inactive: -9.62%.

As to `CCCCOc1ccc(C(=O)NCC2(N3CCCCC3)CCCCC2)cc1OC`, the inhibition was inactive: -4.2%.

Regarding `Cc1cc(SC(NC(=O)c2ccccc2)C(Cl)(Cl)Cl)nc(C(C)C)n1` (stereo unspecified), the inhibition was inactive: 11.9%.

In the case of `COP(=O)(OC)N1CC1c1ccccc1` (stereo unspecified), the inhibition was inactive: 18.7%.

Consider `CCOC(=O)Nc1cccc([As](=O)(O)O)c1`, for which the inhibition was inactive: -0.95%.

For the compound `O=[N+]([O-])c1ccc(Nc2ccc(Oc3ccc([N+](=O)[O-])cc3[N+](=O)[O-])cc2)c([N+](=O)[O-])c1`, the inhibition was inactive: -2.74%.

Turning to `Cc1cc(SC(NC=O)C(Cl)(Cl)Cl)ncn1` (stereo unspecified), the inhibition is inactive: -2.31%.

`O=P(Nc1ccccn1)(c1cccc2ccccc12)c1cccc2ccccc12`: the inhibition is inactive: 2.21%.

As to `COP1(=S)c2c(C)nn(CCC#N)c2N=C(c2ccc(F)cc2)N1C` (stereo unspecified), the inhibition is inactive: 1.51%.

In the case of `COC(=O)C1(C)COP(=O)(N2CCCC2)OC1` (stereo unspecified), the inhibition is inactive: 0.63%.

For `O=C(COc1ccccc1)OC1CN2CCC1CC2` (stereo unspecified), the inhibition was inactive: 7.73%.

Consider `O=C(Nc1ccncc1[N+](=O)[O-])c1ccc([N+](=O)[O-])cc1[N+](=O)[O-]`, for which the inhibition was inactive: -6.76%.
